Data as given in ChEMBL document CHEMBL1137231, “Efficient evaluation of binding free energy using continuum electrostatics solvation” (J Med Chem, 2004).

Protein sequences, listed by entry. Tags and fused reporters are not part of them. Lines headed by an entry give the natural chain unless they say otherwise; changes in a name come on top.
UniProt P56817: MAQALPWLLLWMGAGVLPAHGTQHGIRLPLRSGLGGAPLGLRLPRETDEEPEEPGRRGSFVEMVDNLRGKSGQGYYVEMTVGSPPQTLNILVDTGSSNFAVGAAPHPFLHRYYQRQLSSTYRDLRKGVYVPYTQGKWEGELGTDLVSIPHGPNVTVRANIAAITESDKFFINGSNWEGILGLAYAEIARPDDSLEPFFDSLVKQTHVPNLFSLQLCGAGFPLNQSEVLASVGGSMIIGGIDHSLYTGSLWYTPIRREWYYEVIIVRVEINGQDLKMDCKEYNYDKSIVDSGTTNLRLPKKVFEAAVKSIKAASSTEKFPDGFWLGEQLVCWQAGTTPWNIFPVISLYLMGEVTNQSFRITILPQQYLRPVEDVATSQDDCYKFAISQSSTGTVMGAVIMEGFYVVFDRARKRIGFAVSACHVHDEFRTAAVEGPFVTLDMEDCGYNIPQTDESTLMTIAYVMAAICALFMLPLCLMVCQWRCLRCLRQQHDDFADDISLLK

Biological target: Beta-secretase 1 (Homo sapiens, UniProt P56817)
Experiment: Binding affinity towards Beta-secretase determined using continuum electrostatics solvation

CSCCC(NC(=O)[C@@H](NC(=O)OC(C)(C)C)C(C)C)C(=O)N[C@@H](CC(C)C)C(O)CC(CC(C)C)C(=O)N[C@H](C(=O)NCc1ccccc1)C(C)C (some centres not stated)
Ki: 10.5 µM

CC(C)C[C@H](NC(=O)C(CCS(C)(=O)=O)NC(=O)[C@@H](NC(=O)OC(C)(C)C)C(C)C)C(O)CC(C)C(=O)N[C@H](C(=O)NCc1ccccc1)C(C)C (some centres not stated)
Ki: 0.008 µM
